IC50 data for one compound are collected here from ChEMBL document CHEMBL4177632 (Bioorg Med Chem, 2017).

The target in the assay is Aldo-keto reductase family 1 member B1 (Homo sapiens, UniProt P15121). The experiment in a line: Inhibition of recombinant human AKR1B1 using D,L-glyceraldehyde as substrate.

In general, IC50 refers to the concentration at which inhibition is half-maximal. Turning to `O=C(O)Cc1nn(Cc2nc3cc(C(F)(F)F)ccc3s2)c(=O)c2ccccc12` [ZOPOLRESTAT], the IC50 worked out at 24.8 nM.
